Paper PMC6561105 (Journal of medicinal chemistry, 2019)
Counter-ions that a name gives are not always drawn.

What was measured:
[1] = test system: HOXA9/DNA binding (HBS, HOXA9-binding site); design: species or system human; details: ELISA-derived assay and EMSA, Figure 1; SAR discussion
[2] = test system: HOXA9 binding to Akap13-HBS sequence
HOXA9/HBS complex = assay type: binding, human; details: for inhibition of HOXA9/DNA binding: 2.5 µM

Molecule: 2-(5-(4-Carbamimidoylphenyl)thiophen-2-yl)quinoline-6-carboximidamide trihydrochloride [DB1504]
- HOXA9/DNA binding inhibition (in words) [1]: strongly alters its propensity to inhibit

Molecule: N=C(N)c1ccc(-c2ccc(-c3nc4cc(C(=N)N)ccc4[nH]3)o2)cc1 [DB293, reference compound]
- HOXA9/DNA binding inhibition (in words) [1]: strongly reduces HOXA9 inhibition efficacy

Molecule: N=C(N)c1ccc(-c2ccc(-c3nc4ccc(C(=N)N)cc4[nH]3)s2)cc1 [DB818]
- inhibition of HOXA9 binding to Akap13-HBS [2]: inhibited

Molecule: N=C(N)c1ccc(-c2ccc(-c3nc4cc(C(=N)N)ccc4o3)o2)cc1 [DB828]
- HOXA9/DNA binding inhibition (in words) [1]: failed to inhibit
- sub-group for HOXA9/DNA binding inhibition (HOXA9/HBS complex): inactive

Molecule: N=C(Nc1ccc(-c2ccc(-c3ccc(NC(=N)c4ccccn4)cc3)[nH]2)cc1)c1ccccn1 [DB883]
- sub-group for HOXA9/DNA binding inhibition (HOXA9/HBS complex): Medium

Molecule: N=C(Nc1ccc(-c2ccc(-c3ccc(NC(=N)c4ccccc4)cc3)[nH]2)cc1)c1ccccc1 [DB884]
- inhibition of HOXA9/DNA binding (HOXA9/HBS complex): > 90%

Molecule: N=C(N)c1ccc(-c2ccc(-c3nc4ccc(C(=N)N)cc4[nH]3)o2)nc1 [DB915, 2-[5-(5-Amidinopyridin-2-yl)furan-2-yl]-1H-benzimidazole-6-amidine acetate]
- HOXA9/DNA binding inhibition (in words) [1]: strongly reduces HOXA9 inhibition efficacy

Molecule: N=C(N)c1cccc(-c2ccc(-c3nc4cc(C(=N)N)ccc4[nH]3)cc2)c1 [DB1055]
- inhibition of HOXA9 binding to Akap13-HBS [2]: inhibited

Molecule: N=C(N)c1ccc(-c2ccc(-c3cc4ccc(C(=N)N)cc4[nH]3)s2)cc1 [DB1879, 2-(5-(4-Carbamimidoylphenyl)thiophen-2-yl)-1H-indole-6-carboximidamide diydrochloride]
- inhibition of HOXA9/DNA binding (HOXA9/HBS complex): > 90%

Molecule: Cn1c(-c2ccc(-c3ccc(C(=N)N)cc3)s2)nc2cc(C(=N)N)ccc21 [DB2429]
- HOXA9/DNA binding inhibition (in words) [1]: inactive

Molecule: Cn1c(-c2ccc(-c3ccc(C(=N)N)cc3)o2)nc2cc(C(=N)N)ccc21 [DB2430]
- HOXA9/DNA binding inhibition (in words) [1]: inactive

Molecule: N=C(N)c1ccc(-c2ccc(-c3cc4ccc(C(=N)N)cc4[nH]3)s2)nc1 [DB2529, 2-(5-(5-Carbamimidoylpyridin-2-yl)thiophen-2-yl)-1H-indole-6-carboximidamide trihydrochloride]
- inhibition of HOXA9/DNA binding (HOXA9/HBS complex): > 90%

Molecule: N=C(N)c1ccc(-c2cnc(-c3nc4ccc(C(=N)N)cc4[nH]3)s2)cc1 [DB2651, 2-(5-(4-Carbamimidoylphenyl)thiazol-2-yl)-1H-benzo[d]imidazole-6-carboximidamide trihydrochloride]
- HOXA9/DNA binding inhibition (in words) [1]: strongly reduces HOXA9 inhibition efficacy

Molecule: CC(C)n1c(-c2ccc(-c3ccc(C(=N)N)cc3)s2)nc2cc(-c3ccc(C(=N)N)cc3)ccc21 [DB2708]
- HOXA9/DNA binding inhibition (in words) [1]: strongly alters its propensity to inhibit
